According to PubChem BioAssay AID2130 (The Scripps Research Institute Molecular Screening Center, 2009):
This is a selection; strong and weak results do not stand in their true shares. Active and inactive are the calls of the source.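 The calls were made as follows: active = inhibition above the campaign mean of all compounds plus 3 SD (cut at about 26% in these data); inactive = the rest.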

By UniProt entry, the sequences of proteins in these tests, tags left out. Where a name states a change or a piece, a line headed by the entry shows the natural chain unless it says otherwise.
UniProt Q9Y570: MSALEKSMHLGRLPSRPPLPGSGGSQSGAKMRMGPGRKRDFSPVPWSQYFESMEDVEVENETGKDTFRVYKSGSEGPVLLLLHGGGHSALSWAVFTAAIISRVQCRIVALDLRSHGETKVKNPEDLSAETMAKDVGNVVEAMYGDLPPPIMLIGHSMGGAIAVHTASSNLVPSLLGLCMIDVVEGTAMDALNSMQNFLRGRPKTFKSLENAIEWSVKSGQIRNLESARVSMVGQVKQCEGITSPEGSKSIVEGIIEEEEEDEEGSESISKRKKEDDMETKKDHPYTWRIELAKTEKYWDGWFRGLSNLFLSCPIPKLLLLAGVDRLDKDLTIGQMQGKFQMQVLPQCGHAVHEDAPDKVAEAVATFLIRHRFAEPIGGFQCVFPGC

Target: Protein phosphatase methylesterase 1 (Homo sapiens) (UniProt Q9Y570)
Assay: PME-1 inhibitors via competitive probe labeling, primary screen, biochemical, fluorescence polarization, FP-Rh probe, HTS (AID 2130);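 also: competitive labeling of PME-1 active site by serine hydrolase directed probe; 0% = PME-1 with DMSO and 100% = wells lacking PME-1 enzyme; inhibitors block probe labeling so polarization falls and inhibition rises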
Details: recombinant PME-1, FP-Rh probe fluorescence polarization; at 5.9 µM; active compounds read high

| Compound | inhibition |
| --- | --- |
| CCC(C)N(CC(C)C)C(=S)SC(NC(C)=O)C(Cl)(Cl)Cl (stereo not drawn) | inactive: 2.39% |
| O=C(OC1CN2CCC1CC2)c1cccc([N+](=O)[O-])c1 (stereo not drawn) | inactive: -1.86% |
| CCOC(=O)c1ccc(NC(=O)C(C)(CCl)SC)cc1 (stereo not drawn) | inactive: -1.99% |
| O=C(Nc1ccncc1[N+](=O)[O-])c1ccc([N+](=O)[O-])cc1[N+](=O)[O-] | inactive: 4.04% |
| O=C(COc1ccccc1)OC1CN2CCC1CC2 (stereo not drawn) | inactive: -6% |
| COP1(=S)c2c(C)nn(CCC#N)c2N=C(c2ccc(F)cc2)N1C (stereo not drawn) | inactive: -4.44% |
| CC(C)/C=N\N=C(\N)N[N+](=O)[O-] | inactive: 0.23% |
| CN(C(=O)Cc1ccc(Cl)c(Cl)c1)[C@@H]1CCCC[C@H]1N1CCCC1 | inactive: 2.4% |
| CC1(CBr)Cn2c(nc3ccccc3c2=O)S1 (stereo not drawn) | inactive: -3.43% |
| O=[As](O)(c1ccccc1Br)c1ccccc1Br | inactive: -4.33% |
| COc1ccccc1CNC(=O)COC(=O)C(O)(c1ccccc1)c1ccccc1 | inactive: 0.78% |
| CC(C)(C)C(=O)NC(Sc1ncccn1)C(Cl)(Cl)Cl (stereo not drawn) | inactive: 0.71% |
| Clc1n[nH]nc1-c1nn[nH][15n]1 | inactive: -4.15% |
| CCOP(=O)(NC(=NC(C)c1ccccc1)NC(C)c1ccccc1)OCC (stereo not drawn) | inactive: -0.23% |
| O=P1(Nc2ccccn2)COc2ccccc2OC1 | inactive: -1.23% |
| CCC1=CC2Cc3nc4ccc(Cl)cc4c(N)c3C(C1)C2 (stereo not drawn) | inactive: -122% |
| CN(CCCl)Cc1cc(Cl)c(NC2=NCCN2)c(Cl)c1 | inactive: -1.18% |
| CCOP(=O)(Nc1ccc(C)cn1)OCC | inactive: 0.01% |
| Nc1cccc([As](=O)(O)c2ccccc2)c1 | inactive: -4.41% |
| O=P1(Nc2ccc(Br)cn2)COc2ccccc2OC1 | inactive: -0.27% |
| NS(=O)(=O)c1cccc(NC(=O)COC(=O)C(O)(c2ccccc2)c2ccccc2)c1 | inactive: 3.24% |
| Cc1ccc(OCC(=O)OC2CN3CCC2CC3)cc1 (stereo not drawn) | inactive: -0.72% |
| O=[As](O)(c1cccs1)c1cccs1 | inactive: -2.19% |
| O=P1(Nc2ncccn2)COc2ccccc2OC1 | inactive: 6.61% |
| CN(C)C1(CNC(=O)c2ccc(S(C)(=O)=O)cc2)CCCCC1 | inactive: 3.32% |
| O=C(/C=C/c1ccccc1)OC1CN2CCC1CC2 (stereo not drawn) | inactive: -4.41% |
| CC1CCC(C(C)C)C(OP(=O)(Nc2ccccn2)c2ccccc2)C1 (stereo not drawn) | inactive: 4.78% |

| Compound | inhibition |
| --- | --- |
| Cc1ccc(C(=O)OC2CN3CCC2CC3)cc1 (stereo not drawn) | inactive: -7.87% |
| Cc1nn(-c2ccccc2)c2c1P(=O)(N1CCOCC1)N(C)C(c1ccccc1)=N2 (stereo not drawn) | inactive: -0.66% |
| CN(C(=O)Cc1ccccc1)[C@@H]1CC[C@]2(CCCO2)C[C@H]1N1CCCC1 | inactive: -0.48% |
| CCOP1(=S)c2c(C)nn(CCC#N)c2N=C(c2ccc(F)cc2)N1C (stereo not drawn) | inactive: 0.65% |
| N#CCCN(C(=O)COC(=O)C(O)(c1ccccc1)c1ccccc1)c1ccc(F)cc1 | inactive: -3.33% |
| CN(C(=O)Cc1ccc(Cl)c(Cl)c1)[C@H]1CC[C@@]2(CCCO2)C[C@@H]1N1CCCC1 | inactive: -1.35% |
| CN(C)C(=O)c1cc([N+](=O)[O-])cc2c1-c1c(cc([N+](=O)[O-])cc1[N+](=O)[O-])C2=O | active: 54.6% |
| O=[N+]([O-])c1ccc2c(c1)nnn2O | inactive: 3.66% |
| NC(=O)Nc1ccc([As](=O)(O)O)cc1 | inactive: -0.66% |
| Nc1ccccc1[As](=O)(O)c1ccccc1 | inactive: -1.5% |
| O=C(O)COc1ccc([As](=O)(O)O)cc1[N+](=O)[O-] | inactive: -4.08% |
| O=P(Nc1nccs1)(c1ccccc1)c1nc2ccccc2s1 (stereo not drawn) | inactive: -3.65% |
| O=P(Nc1nccs1)(Oc1ccccc1)Oc1ccccc1 | inactive: -0.22% |
| CCOP1(=S)c2c(C)nn(CCC#N)c2N=C(c2ccccc2F)N1C (stereo not drawn) | inactive: 4.59% |
| CS(=O)(=O)c1cc([N+](=O)[O-])c2no[n+]([O-])c2c1 | inactive: -3.06% |
| CCOP(=O)(Nc1cccc2ccccc12)OCC | inactive: 0.04% |
| COc1cc(C2NCCC3(OCCO3)C2(C)C)cc(OC)c1OC (stereo not drawn) | inactive: 2.16% |
| Cc1ccc(NCCc2c([N+](=O)[O-])cc([N+](=O)[O-])cc2[N+](=O)[O-])cc1 | inactive: 2.46% |
| Nc1cccc2c([As](=O)(O)O)cccc12 | inactive: 24.1% |
| CCCOP(=S)(Nc1nc(N)cc(=O)[nH]1)OCCC | inactive: -1.02% |
| O=[As](O)(c1cccc(O)c1)c1cccc(O)c1 | inactive: -0.56% |
| Cc1cccc(OCC(=O)OC2CN3CCC2CC3)c1 (stereo not drawn) | inactive: -0.93% |
| O=C(OC1CN2CCC1CC2)c1ccc(Cl)cc1 (stereo not drawn) | inactive: 2.79% |
| CS(=O)(=O)c1ccc(Cl)c(NC(=O)COC(=O)C(O)(c2ccccc2)c2ccccc2)c1 | inactive: 7.3% |
| COc1cc(C(=O)NCC2(N3CCOCC3)CCCCC2)cc(Cl)c1OC(C)C | inactive: 0.09% |
| O=[As](O)(O)c1cccnc1 | inactive: 1.84% |
